pIC50: −log10 of the molar value.
Legend:
human NMT1 (HsNMT1) = target: T1, human NMT1 (HsNMT1) (Homo sapiens, UniProt P30419); assay: HsNMT1 sensitive fluorescence-based assay (CoA detection with CPM); type: biochemical
T1 sequence (P30419 1-496): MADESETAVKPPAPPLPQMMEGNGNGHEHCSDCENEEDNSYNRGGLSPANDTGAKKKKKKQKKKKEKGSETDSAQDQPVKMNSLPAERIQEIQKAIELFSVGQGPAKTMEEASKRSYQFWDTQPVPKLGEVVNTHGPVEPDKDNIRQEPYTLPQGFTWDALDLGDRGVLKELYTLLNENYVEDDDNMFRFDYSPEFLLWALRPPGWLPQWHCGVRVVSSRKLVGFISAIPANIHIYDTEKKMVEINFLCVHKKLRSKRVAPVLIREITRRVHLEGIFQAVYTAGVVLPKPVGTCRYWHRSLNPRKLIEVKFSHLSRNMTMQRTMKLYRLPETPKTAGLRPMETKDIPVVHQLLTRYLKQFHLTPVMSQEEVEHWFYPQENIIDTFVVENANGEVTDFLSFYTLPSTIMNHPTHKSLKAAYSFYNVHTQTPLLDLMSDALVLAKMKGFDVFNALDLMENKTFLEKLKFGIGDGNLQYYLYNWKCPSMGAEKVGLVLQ
Description: The IC50 values for human NMT1 (HsNMT1) of certain Example compounds, and Comparator Compound 1, were measured using a sensitive fluorescence-based assay based on detection of CoA by 7-diethylamino-3-(4-maleimido-phenyl)-4-methylcoumarin, as described in Goncalves, V., et al., Analytical Biochemistry, 2012, 421, 342-344 and Goncalves, V., et al., J. Med. Chem, 2012, 55, 3578.

NCI-N87 tumour cells = assay: Gastric cancer xenograft model (NCI-N87), tumour volume; type: in vivo, mouse; conditions: for tumour volumes compared to vehicle alone: all concentrations (2.5 mg/kg or 5 mg/kg), p<0.0001; for TGI study day 28: BALB/c nude mice
Description: In this study, 143 mice were inoculated subcutaneously in the right flank region with 1×10^7 viable NCI-N87 tumour cells resuspended in 0.1 mL of PBS mixed with Matrigel (1:1) for tumour development. 102 mice were assigned to 9 treatment groups on study day 0 when tumour volumes averaged 168.08 mm^3. […] The study was terminated on study Day 28.
Tumour volumes in mice were measured three times per week and tumour volume was calculated using the formula 0.5 (L×W2).
Tumour Growth Inhibition, ΔTGI %=((mean(C)−mean (C0))−(mean(T)−mean(T0)))/(mean(C)−mean(C0))*100% where T is the mean tumour volume of the treated group on the measurement day and TO is the mean tumour volume on Study Day 0. C is the mean tumour volume of the control Group 1 mice on the measurement day and C0 is the mean tumour volume on Study Day 0.

[1] = tested on: BT474 breast cancer cells; assay: Orthotopic breast cancer xenograft model (BT474), tumour volume; type: in vivo, mouse; conditions: NOD/SCID mice
Description: NOD/SCID mice were implanted with estrogen pellets (17β-estradiol, 60 day release, 0.36 mg) subcutaneously in the right flank one day before the tumour inoculation. On day −8 each mouse was then injected in the right mammary fat pad with 1×10^7 viable BT474 breast cancer cells resuspended in 0.2 mL of Phosphate Buffered Saline mixed with matrigel (1:1). Mice were assigned to treatment groups when tumour volumes averaged 149.78 mm^3 on study day 0. […] The study was terminated on Study Day 35. […] Each group was comprised of 10 mice. Tumour volumes in mice were measured three times per week and tumour volume was calculated using the formula 0.5 (L×W^2). The mean tumour volumes (+SEM) for each study group at each measurement are shown in FIGS. 7 and 8 plotted as Last Observation Carried Forward. Statistical analyses were carried out on tumour readings for Groups 1, 2, 3, 4 and 5 up to Study Day 23 (after this point >50% of the animals within one of the study groups were lost; Group 2) using two-way ANOVA, or a Mixed-Effects model was fitted when values were missing from groups (PRISM GraphPad Software Inc.). Statistical analysis of Group 6 was conducted until day 12 (at this point the study was terminated due to the significant loss of observed body weight). […]

[2] = Body weight in BT474 xenograft study; type: in vivo, mouse; conditions: 2.5 or 5 mg/kg IV once per week
Description: During the study, body weights were measured three times weekly for all animals. Animals were given Diet Gel for the entire duration on the study.

[3] = Body weight in NCI-N87 xenograft study; type: in vivo, mouse; conditions: regained by next measurement
Description: During the study, body weights were measured three times weekly for all animals. Animals were given Diet Gel for the entire duration on the study. The mean body weights for each group during the dosing phase are presented in FIGS. 13A (2.5 mg/kg) and 13B (5 mg/kg).

| Compound | pIC50 (human NMT1 (HsNMT1)) | tumour volumes compared to vehicle alone (NCI-N87 tumour cells) | Tumor growth inhibition % on day 23 ([1]; 2.5 mg/kg IV once per week for four weeks) | Tumor growth inhibition % on day 23 ([1]; 5 mg/kg IV once per week for four weeks) | TGI study day 28 (NCI-N87 tumour cells; 2.5 mg/Kg IV QW x 2 weeks) | TGI study day 28 (NCI-N87 tumour cells; 5 mg/Kg IV QW x 2 weeks) | body weights compared to vehicle control [2] | Significant body weight loss (>10%), animals affected ([3]; 2.5 mg/Kg) | Significant body weight loss (>10%), animals affected ([3]; 5 mg/Kg) |
| --- | --- | --- | --- | --- | --- | --- | --- | --- | --- |
| CNCc1cnc2ccc(-c3ccc(F)cc3OCCc3c(C(C)(C)O)nn(C)c3C)cn12 [Example 18, 2-(4-(2-(5-fluoro-2-(3-((methylamino)methyl)imidazo[1,2-a]pyridin-6-yl)phenoxy)ethyl)-1,5-dimethyl-1H-pyrazol-3-yl)propan-2-ol] | 8.72 | – | – | – | – | – | – | – | – |
| trastuzumab deruxtecan | – | significant decrease | – | – | – | – | – | – | – |
| trastuzumab: antibody binding HER2; heavy chain SEQ ID NO: 2, light chain SEQ ID NO: 1 | – | significant decrease | 3.6% | 46% | 123.08% | 167.70% | did not differ significantly from the vehicle control | one animal | one animal |

— US20260049075A1, “CYTOTOXIC IMIDAZO[1,2-A]PYRIDINE COMPOUNDS AND THEIR USE IN THERAPY” (MyricX Pharma Limited, priority 2022, published 2026)
